Patent US20050158374A1, “Compositions and dosage forms for enhanced absorption of metformin” (priority 2003, published 2005)

Legend:
[1] = in vivo colonic absorption using flushed ligated colonic model in rats; settings: ligated colon

With Metformin oleate the “H2O Solubility (4 h)” value was 53 and the “Bioavailability Relative to IV Dose (Fold-Increase)” value [1] was 14 Fold-Increase.
